According to patent US4548938A, “5-H-1,3,4-thiadiazolo[3,2-a]pyrimidin-5-one compounds” (Janssen Pharmaceutica N.V., priority 1985, dated 1985):

System: apomorphine-induced emesis
Test: apomorphine test in dogs (APO-dog)
Format: in vivo
Settings: s.c.; beagle dogs; apomorphine 0.31 mg/kg s.c. 1 hour after compound; protection from emesis

Compound	ED50 (APO)-dog
Cc1nn2c(=O)c(CCN3CCC(c4c[nH]c5ccccc45)CC3)c(C)nc2s1 [compound 14, 6-[2-[4-(1H-indol-3-yl)-1-piperidinyl]ethyl]-2,7-dimethyl-5H-1,3,4-thiadiazolo[3,2-a]pyrimidin-5-one]	0.06 mg/kg
Cc1nc2sc3ccccc3n2c(=O)c1CCN1CCC(c2c[nH]c3ccccc23)CC1 [compound 13, 3-[2-[4-(1H-indol-3-yl)-1-piperidinyl]ethyl]-2-methyl-4H-pyrimido[2,1-b]benzothiazol-4-one]	0.06 mg/kg
Cc1nc2scc(C)n2c(=O)c1CCN1CCC(C(=O)c2ccc(F)cc2)CC1 [compound 4, 6-[2-[4-(4-fluorobenzoyl)-1-piperidinyl]ethyl]-3,7-dimethyl-5H-thiazolo[3,2-a]pyrimidin-5-one]	0.06 mg/kg
